Earlier results in US6562605B1, “Extraction of water soluble biomaterials from fluids using a carbon dioxide/surfactant mixture” (Genencor International, Inc., priority 1995, dated 2003).

Settings: at 487 bar

## Dimethyl dicoco ammonium chloride
  Solubility in carbon dioxide: slightly soluble at 487 bar
